Source: US5844001A, “Combination platinum chemotherapeutic/antiestrogen therapy for human cancers” (Research Development Foundation, priority 1994, dated 1998)
Entries after “also recorded” stand apart in the source; their conditions may differ.

Tested on: 2008 ovarian carcinoma cells
Assay: Development of DDP resistance with or without TAM, 2008 (colony formation)
Format: cell-based, human
Details: TAM given concurrently, in words, listed as TAM

## CC/C(=C(\c1ccccc1)c1ccc(OCCN(C)C)cc1)c1ccccc1 [tamoxifen]
  effect on development of DDP resistance: delay the development of DDP resistance; also recorded: reduced by TAM in each of the 3 repeats
